This is a selection: effects in other tests are not listed, and their absence says nothing.

Sequences of proteins named here, by UniProt entry; tags and fusion partners are left off.
UniProt P49146, whole entry: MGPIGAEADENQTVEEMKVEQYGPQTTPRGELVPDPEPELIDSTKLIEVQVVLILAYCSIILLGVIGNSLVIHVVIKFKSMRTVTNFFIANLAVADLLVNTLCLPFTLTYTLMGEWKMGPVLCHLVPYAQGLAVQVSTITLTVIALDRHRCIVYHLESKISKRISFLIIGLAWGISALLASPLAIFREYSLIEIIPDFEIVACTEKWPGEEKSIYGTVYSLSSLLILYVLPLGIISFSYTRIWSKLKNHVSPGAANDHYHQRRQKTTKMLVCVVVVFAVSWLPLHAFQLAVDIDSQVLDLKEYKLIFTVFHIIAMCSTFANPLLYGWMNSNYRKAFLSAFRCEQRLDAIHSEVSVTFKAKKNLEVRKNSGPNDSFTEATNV

The record followed here is patent publication US7317025B2, “Non-peptidic NPY Y2 receptor inhibitors” (Johnson & Johnson Pharmaceutical Research & Development, LLC, priority 2003, dated 2008).

The target in the first assay is T1, Y2 receptors (Homo sapiens, UniProt P49146). Nature of the assay: [35S]GTPγS binding assay in KAN-Ts cells. Particulars: PYY-stimulated [35S]GTPγS binding; KAN-Ts membranes.
As for `CC(=O)N1CCc2ccc(N(C(=O)/C=C/c3cccc(C#N)c3)C3CCN(CCC4CCCC4)CC3)cc21`, the “mode of action in [35S]GTPγS binding assay” value is given as “competitive”.

The target of another assay is T1, Y2 receptors. Description: Radioligand binding assay, [125I]PYY, KAN-Ts membranes. Particulars: membranes of KAN-Ts cells endogenously expressing Y2 receptors; [125I]PYY (80 pM); 1 h at rt.
Consider `CC(=O)N1CCc2ccc(N(C(=O)/C=C/c3cccc(C#N)c3)C3CCN(Cc4ccccc4)CC3)cc21`, for which the IC50 (commonly the concentration that gives 50% inhibition) was 1000 nM.
As for `CC(=O)N1CCc2ccc(N(C(=O)/C=C/c3ccccc3)C3CCN(CCC4CCCC4)CC3)cc21`, the IC50 amounted to 800 nM.
The same measure, in the same setting: the figure for `CC(=O)N1CCc2ccc(N(C(=O)/C=C/c3cccc([N+](=O)[O-])c3)C3CCN(CCC4CCCCC4)CC3)cc21` is 500 nM.
Compound `CC(=O)N1CCc2ccc(N(C(=O)/C=C/c3cccc(Cl)c3)C3CCN(Cc4ccccc4)CC3)cc21` showed an IC50 of 3000 nM.
For the compound `CC(=O)N1CCc2ccc(N(C(=O)/C=C/c3ccccc3)C3CCN(CCC4CCCCC4)CC3)cc21`, the IC50 is 600 nM.
Same read-out and setting: the value for `CC(=O)N1CCCc2ccc(N(C(=O)/C=C/c3ccccc3)C3CCN(Cc4ccccc4)CC3)cc21` was 10000 nM.
